Assay results as given in patent US11389464B2, “Arginase inhibitors as therapeutics” (Mars, Incorporated, priority 2010, dated 2022).

Chains of the proteins cited; added tags and fusions are not shown. Lines headed by an entry give the natural chain unless they say otherwise; changes in a name come on top. Residues count along the entry.
UniProt P78540, 23-354: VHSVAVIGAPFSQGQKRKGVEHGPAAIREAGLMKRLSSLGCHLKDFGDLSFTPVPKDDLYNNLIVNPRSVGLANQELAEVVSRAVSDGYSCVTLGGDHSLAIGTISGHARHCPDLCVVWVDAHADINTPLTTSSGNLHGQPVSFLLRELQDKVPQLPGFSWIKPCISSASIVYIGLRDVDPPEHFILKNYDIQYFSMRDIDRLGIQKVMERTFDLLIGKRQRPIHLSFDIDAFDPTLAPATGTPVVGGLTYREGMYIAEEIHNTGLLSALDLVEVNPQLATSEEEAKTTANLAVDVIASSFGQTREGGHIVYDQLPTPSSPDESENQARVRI
UniProt P05089: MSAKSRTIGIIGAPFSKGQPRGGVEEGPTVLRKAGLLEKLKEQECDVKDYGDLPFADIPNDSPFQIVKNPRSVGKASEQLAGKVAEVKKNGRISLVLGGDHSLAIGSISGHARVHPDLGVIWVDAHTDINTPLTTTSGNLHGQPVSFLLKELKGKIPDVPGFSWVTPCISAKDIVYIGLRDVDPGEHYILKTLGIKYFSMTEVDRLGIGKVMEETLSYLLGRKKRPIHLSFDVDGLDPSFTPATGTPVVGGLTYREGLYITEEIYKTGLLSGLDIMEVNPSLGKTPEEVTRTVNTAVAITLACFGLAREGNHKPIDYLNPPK

Tests used:
[1] = biological target: human arginase II (ARG II) (Homo sapiens (Human), UniProt P78540); test: Inhibition of arginase II (ARG II), spectrophotometric urea assay at 530 nm; assay type: biochemical; settings: potency rank 1-5; 37° C., 60 minutes, pH 7.4
Method: (§1) The assay established the concentration of inhibitor that is required to reduce arginase activity by 50% (IC50), as shown in Table 2 below.
(§2) Inhibition of arginase I (ARG I) and arginase II (ARG II) by Formula I or Formula II compounds is followed spectrophotometrically at 530 nm. The compound to be tested was dissolved in DMSO at an initial concentration 50-fold greater than its final concentration in the cuvette. 10 μl of the stock solution was diluted in 90 μl of the assay buffer that comprises 0.1M sodium phosphate buffer containing 130 mM NaCl, pH 7.4, to which is added ovalbumin (OVA) at a concentration of 1 mg/ml. Solutions of arginase I and II were prepared in 100 mM sodium phosphate buffer, pH 7.4 containing 1 mg/ml of OVA to give an arginase stock solution at a final concentration of 100 ng/ml.
(§3) To each well of a 96-well microtiter plate was added 40 μl of enzyme, 10 μl of an inventive compound and 10 μl of enzyme substrate (L-arginine+manganese sulfate). For wells that were used as positive controls, only the enzyme and its substrate were added, while wells used as negative controls contained only manganese sulfate.
(§4) After incubating the microtiter plate at 37° C. for 60 minutes, 150 μl of a urea reagent obtained by combining equal proportions (1:1) of reagents A and B is added to each well of the microtitcr plate to stop the reaction. […]

human arginase I (ARG I) = human arginase I (ARG I) (Homo sapiens (Human), UniProt P05089); test: Inhibition of arginase I (ARG I), spectrophotometric urea assay at 530 nm; assay type: biochemical; settings: potency rank 1-5; 37° C., 60 minutes, pH 7.4
Method: as §1, §2, §3, §4

## (2R,3S)-3-amino-2-(3-boronopropyl)pyrrolidine-3-carboxylic acid [Example 10]
[1]
  IC50: > 5 µM
Human arginase I (ARG I)
  IC50: > 5 µM
